Literature values as cited in patent US11700853B2, “Plant health compositions comprising a water-soluble pesticide and a water-insoluble agrochemical” (priority 2010, dated 2023).

Conditions: at 20° C.; cited from earlier work

In the case of `CCOP(=S)(OCC)SCn1nnc2ccccc2c1=O` [azinophos-ethyl], the “water solubility (Solub.)” value is given as 4 to 5 µg/mL.
